Test [1] concerns the target T1, GSK3-alpha (Homo sapiens, UniProt P49840). Nature of the test: GSK3-alpha potency (IC50), kinase assay. The note with it: GSK3-alpha/GSK3-beta selectivity ratio = IC50 GSK3-beta divided by IC50 GSK3-alpha. In kind it is biochemical.
Test [2] deals with T1, GSK3-alpha. The note with it: read-out: Potency in nM GSK3-alpha, literature values; cited from earlier work.
In test [3] the target is GSK3-beta (Homo sapiens, UniProt P49841). Conditions: read-out: Potency in nM GSK3-beta, literature values; cited from earlier work.

Amino acid sequences for entries named in this document (tags omitted).
UniProt P49840, whole entry: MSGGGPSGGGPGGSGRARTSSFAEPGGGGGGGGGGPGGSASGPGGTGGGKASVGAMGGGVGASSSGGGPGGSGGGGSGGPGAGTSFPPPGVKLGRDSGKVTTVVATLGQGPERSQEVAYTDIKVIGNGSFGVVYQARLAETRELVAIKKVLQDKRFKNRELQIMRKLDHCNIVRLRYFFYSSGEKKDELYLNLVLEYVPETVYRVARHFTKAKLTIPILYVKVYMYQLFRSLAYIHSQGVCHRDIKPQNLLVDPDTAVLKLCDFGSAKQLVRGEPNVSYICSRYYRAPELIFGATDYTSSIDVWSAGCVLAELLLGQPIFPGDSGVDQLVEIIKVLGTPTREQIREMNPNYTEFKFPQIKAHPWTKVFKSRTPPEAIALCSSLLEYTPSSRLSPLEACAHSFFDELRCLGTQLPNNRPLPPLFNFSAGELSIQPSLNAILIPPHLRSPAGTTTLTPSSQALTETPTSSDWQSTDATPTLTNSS
UniProt P49841, whole entry: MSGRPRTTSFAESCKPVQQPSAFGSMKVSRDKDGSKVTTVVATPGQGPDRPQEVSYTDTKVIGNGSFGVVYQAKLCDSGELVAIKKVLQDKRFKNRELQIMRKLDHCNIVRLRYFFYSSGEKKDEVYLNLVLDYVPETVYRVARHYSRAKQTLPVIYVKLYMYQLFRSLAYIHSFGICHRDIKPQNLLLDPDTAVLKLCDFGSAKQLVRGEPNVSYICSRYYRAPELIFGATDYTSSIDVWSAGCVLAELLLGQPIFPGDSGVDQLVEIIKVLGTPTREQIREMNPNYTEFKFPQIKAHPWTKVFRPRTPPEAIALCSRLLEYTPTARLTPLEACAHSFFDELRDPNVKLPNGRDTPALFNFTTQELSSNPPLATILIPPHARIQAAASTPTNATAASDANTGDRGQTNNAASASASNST

Molecules are shown by their SMILES.

Turning to `CC1(C)CC(=O)C2=C(C1)Nc1n[nH]c(C(F)(F)F)c1[C@]2(C)c1ccccc1`, the “Ratio of Alpha to Beta” value in test [1] is reported as 10. Further, the figures for the IC50 in test [2] and in test [3] were 0.4 nM and 4 nM, respectively.

These data come from patent publication US20190093079A1, “METHODS FOR CONTROLLED PROLIFERATION OF STEM CELLS / GENERATING INNER EAR HAIR CELLS USING GSK-3-ALPHA INHIBITORS” (Frequency Therapeutics, Inc., priority 2016, published 2019).
